Measured values taken from patent publication EP1495132B1, “SYSTEMIC MARKER FOR MONITORING ANTI-INFLAMMATORY AND ANTIOXIDANT ACTIONS OF THERAPEUTIC AGENTS” (priority 2002, dated 2003).

Tested on: MPO and multiple distinct oxidation products formed by MPO
Conditions: 16 weeks of refocoxib 25 mg PO QD, rheumatoid arthritis, n=10

## CS(=O)(=O)c1ccc(C2=C(c3ccccc3)C(=O)OC2)cc1 [refocoxib]
  clinical outcome: clinical improvement in each subject
Plasma protein-bound
  Nitrotyrosine: 11.2 µmol/mol
plasma
  9-H(P)ETE: 0.20 mmol/mol
  Chlorotyrosine: 15.8 µmol/mol
  Dityrosine: 35.4 µmol/mol
  F2Isoprostane: 0.76 mmol/mol
  MPO: 10.8 ng/mL
